Here are results for nine compounds from PubChem BioAssay AID739 (SRMLSC, 2007).

Structures are written as SMILES. The entries are a selection whose mix differs from that of the whole data set. Activity calls are given as the source filed them. Rule as the data show it: active = inhibition above about 30%; inactive = the rest.

The experiment can be described thus: phenotypic screen on post-Golgi transport, primary screen (AID 739).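 Also: yeast cells grown in 1536-well plates; yeast grown about 18 h at 30C before absorbance read.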 The following applies: post-Golgi transport phenotypic cell assay; at 10 µM; hits give high values.
Turning to `CCC(CO)(C(=O)OC1CN2CCC1CC2)c1ccccc1` (centres undefined), the inhibition was inactive: 12.1%.

In the case of `CCOc1ncccc1C(=O)NCC1(N2CCOCC2)CCCCC1`, the inhibition was inactive: -0.31%.

With `N/C(=N\O)c1c(N)no[n+]1[O-]`, the inhibition is inactive: -14.4%.

As to `c1ccc(CN2CCC(Nc3ccccc3)CC2)cc1`, the inhibition is inactive: -0.67%.

In the case of `O=C(NCC1(N2CCOCC2)CCCCC1)c1cc(=O)[nH]c2ccccc12`, the inhibition was inactive: -6.51%.

Take `N#CC1(Nc2ccccc2)CCN(CCc2ccccc2)CC1`: the inhibition was inactive: 16%.

Turning to `O=C(OC1CN2CCC1CC2)C1c2ccccc2Oc2ccccc21` (centres undefined), the inhibition is inactive: 3.22%.

For the compound `O=C(NCC1(N2CCOCC2)CCCCC1)c1cc2ccccc2o1`, the inhibition is inactive: 10.9%.

Regarding `COc1ccc(NC2CCN(CCc3ccccc3)CC2)c(OC)c1`, the inhibition is inactive: 11.2%.
